Data published in ChEMBL document CHEMBL5344481, “Design, synthesis and biological evaluation of rhein-piperazine-furanone hybrids as potential anticancer agents” (RSC Med Chem, 2024).

How the values were obtained:
Homo sapiens [1] = species on record: Homo sapiens; experiment: Selectivity index, ratio of IC50 for human WI-38 cells to IC50 for human PC-9 cells
Homo sapiens [2] = species on record: Homo sapiens; experiment: Selectivity index, ratio of IC50 for human KGN cells to IC50 for human SK-OV-3 cells
Homo sapiens [3] = species on record: Homo sapiens; experiment: Selectivity index, ratio of IC50 for human HEK-293T cells to IC50 for human 786-O cells

## COC1OC(=O)C(Cl)=C1N1CCN(C(=O)c2cc(OC(C)=O)c3c(c2)C(=O)c2cccc(OC(C)=O)c2C3=O)CC1 (stereo not drawn)
Homo sapiens [1]
  Ratio IC50: 12
Homo sapiens [2]
  Ratio IC50: 1
Homo sapiens [3]
  Ratio IC50: 0
